Test results as given in US20050228007A1, “Isoquinoline derivatives and methods of use thereof” (priority 2004, published 2005).
Values joined by “and” are separate entries in the source; they are usually repeats but may differ in a detail not shown here. Identical values can stand only once. Counter-ions that a name gives are not always drawn.

Tested on: D-245 MG (PR) xenografts
Experiment: MMR deficient malignant glioma xenograft, combination with temozolomide
Format: in vivo, mice

Row | Compound | partial regressions observed (8l (mesylate salt) 150 mg/kg i.p. x3 + 262.5 mg/kg TMZ, MMR deficient, two experiments) | effect on tumor volume (FIG. 1) (8l (mesylate salt) with temozolomide vs temozolomide alone) | tumor-control growth delay (TMZ alone 262.5 mg/kg (0.75 LD10), MMR deficient, two experiments)
1 | O=c1[nH]c2c(c3ccccc13)Cc1cc(S(=O)(=O)NCCCN3CCOCC3)ccc1-2 [Compound 8l (mesylate salt), 9-[N-(3-[morpholino-4-yl]propyl)-aminosulphonyl]-5,6-dihydro-5-oxo-11H-indeno-[1,2c]isoquinoline] | 4 of 8 and 3 of 9 | markedly enhances the anti-tumor effects of TMZ | 
2 | Cn1nnc2c(C(N)=O)ncn2c1=O [TMZ, temozolomide, reference compound] |  |  | ~4 days
